## Measured affinities in a library of Ab-95 light chain variants

From the AlphaSeq antibody data of Engelhart et al. 2022 (doi:10.1038/s41597-022-01779-4), copy in the FLAb collection.

All variants were tested on one target, the spike HR2 peptide PDVDLGDISGINAS (SARS-CoV-2).

Parent scFv Ab-95: VH joined to VL by a 15-residue (Gly4Ser)3 linker. Changes lie in the light chain CDRs alone.
VH: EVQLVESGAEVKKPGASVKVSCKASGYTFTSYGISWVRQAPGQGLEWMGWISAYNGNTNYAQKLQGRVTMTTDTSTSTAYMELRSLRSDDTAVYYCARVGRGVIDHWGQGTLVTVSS
VL: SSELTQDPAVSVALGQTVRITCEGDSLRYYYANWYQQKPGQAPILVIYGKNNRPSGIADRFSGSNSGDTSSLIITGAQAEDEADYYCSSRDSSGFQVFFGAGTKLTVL

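The parent was found by panning a naive human phage display library on the peptide. The library (AAYL52) carries one to three amino acid substitutions per variant, with no insertions or deletions. AlphaSeq pools MATa yeast showing the antibodies with MATalpha yeast showing the peptide. Mating (16 h, 30 °C) was followed by selection of diploids and sequencing of their barcodes. Each replicate has its own calibration line, from reference interactions of the BCL2 family. Mating was done three times.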

Substitutions are numbered in sequence along the VL above, starting at 1 (not Kabat).
All variants listed here change S92 of the VL, counted from its first residue.
Each Kd is an estimate from the mating assay, the geometric mean of the replicates in which the pair was seen; lower is stronger.
A pair that was not seen in any replicate is written "no signal"; this usually means weak binding, but a binder can also be missed.

With N33F S89H S92K the result was 74 µM (1 of 3 replicates).
With E23S R28Y S92F the result was no signal (0 of 3 replicates).
With N33G R90W S92A the result was 110 µM (2 of 3 replicates).
With D25M S92F V97C the result was 430 nM (3 of 3 replicates).
With N33F S92W the result was 580 µM (1 of 3 replicates).
With E23S S92G V97P the result was 120 nM (3 of 3 replicates).
With Y30K S92G V97L the result was 65 nM (3 of 3 replicates).
With R28K S55K S92F the result was 300 nM (3 of 3 replicates).
With G24E N52Q S92A the result was 1.8 µM (3 of 3 replicates).
With S92R F95G the result was 1.0 µM (3 of 3 replicates).
With E23S S92E the result was 69 nM (3 of 3 replicates).
With Y30K N52L S92R the result was 32 nM (3 of 3 replicates).
With Y29G S89C S92F the result was 22 nM (3 of 3 replicates).
With N33Q S92F the result was no signal (0 of 3 replicates).
With G24V S88H S92T the result was 16 µM (1 of 3 replicates).
With D25T S92N the result was 1.7 µM (3 of 3 replicates).
With S92V F95M V97R the result was 400 nM (3 of 3 replicates).
With Y31P S88E S92D the result was 15 nM (3 of 3 replicates).
With S92Y G94C the result was 3.4 µM (3 of 3 replicates).
With D25Q S89M S92D the result was 3.9 µM (3 of 3 replicates).
With E23S S92H the result was 370 nM (3 of 3 replicates).
With P54Y D91V S92M the result was 1.1 µM (3 of 3 replicates).
With K50D S92M S93T the result was 53 nM (3 of 3 replicates).
With E23N R90Q S92L the result was no signal (0 of 3 replicates).
With Y30M S88D S92E the result was 280 nM (3 of 3 replicates).
With A32D K50W S92I the result was no signal (0 of 3 replicates).
With S26P Y29L S92E the result was 2.9 µM (2 of 3 replicates).
With A32M D91V S92L the result was 6.2 µM (3 of 3 replicates).
With R90L S92H F95K the result was 1.9 µM (3 of 3 replicates).
With S55I S92M G94V the result was 4.9 µM (3 of 3 replicates).
With S88V S92K F98E the result was 60 nM (3 of 3 replicates).
With N51M S92L the result was 3.0 µM (2 of 3 replicates).
With A32G S92D F95M the result was 4.6 µM (2 of 3 replicates).
With L27V S88Q S92I the result was 1.0 µM (3 of 3 replicates).
With A32T S88Q S92A the result was 320 nM (3 of 3 replicates).
With G49N D91W S92P the result was 800 nM (3 of 3 replicates).
With N51V S92K V97I the result was 3.9 µM (3 of 3 replicates).
With D91R S92Q the result was 270 nM (3 of 3 replicates).
With G49R K50A S92I the result was 41 µM (1 of 3 replicates).
With L27M S92D F98K the result was 1.8 µM (1 of 3 replicates).
With S26W S92C Q96H the result was 1.0 µM (2 of 3 replicates).
With N51I D91Y S92E the result was no signal (0 of 3 replicates).
With L27K G49F S92I the result was no signal (0 of 3 replicates).
With E23F G49F S92T the result was 51 µM (1 of 3 replicates).
With P54D S92H S93Y the result was 640 nM (3 of 3 replicates).
With L27E S92M Q96L the result was 210 µM (1 of 3 replicates).

The opening 6 entries, copied out:

changes,Kd,seen in
N33F S89H S92K,74 µM,1/3
E23S R28Y S92F,no signal,0/3
N33G R90W S92A,110 µM,2/3
D25M S92F V97C,430 nM,3/3
N33F S92W,580 µM,1/3
E23S S92G V97P,120 nM,3/3

Nonspecific signal, from three strains lacking the peptide, appeared in 28% of pairings of library AAYL52, centred on 8.2 µM (5% of these signals below 800 nM); values are not corrected for it.
Parent in this assay: reference entry 200 nM, copy in this library 180 nM.